Assay [1] addresses T1, Dihydrofolate reductase (Mycobacterium avium, UniProt O30463).
T1 sequence (O30463 whole entry): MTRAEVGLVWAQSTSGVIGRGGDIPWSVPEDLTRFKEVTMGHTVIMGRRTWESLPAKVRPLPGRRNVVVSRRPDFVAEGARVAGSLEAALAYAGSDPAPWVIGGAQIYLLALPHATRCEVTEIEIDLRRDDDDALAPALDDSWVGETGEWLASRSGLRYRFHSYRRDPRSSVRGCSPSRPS

Assay [2] concerns the target T2, Bifunctional dihydrofolate reductase-thymidylate synthase (Toxoplasma gondii, UniProt Q07422).
T2 sequence (Q07422 whole entry): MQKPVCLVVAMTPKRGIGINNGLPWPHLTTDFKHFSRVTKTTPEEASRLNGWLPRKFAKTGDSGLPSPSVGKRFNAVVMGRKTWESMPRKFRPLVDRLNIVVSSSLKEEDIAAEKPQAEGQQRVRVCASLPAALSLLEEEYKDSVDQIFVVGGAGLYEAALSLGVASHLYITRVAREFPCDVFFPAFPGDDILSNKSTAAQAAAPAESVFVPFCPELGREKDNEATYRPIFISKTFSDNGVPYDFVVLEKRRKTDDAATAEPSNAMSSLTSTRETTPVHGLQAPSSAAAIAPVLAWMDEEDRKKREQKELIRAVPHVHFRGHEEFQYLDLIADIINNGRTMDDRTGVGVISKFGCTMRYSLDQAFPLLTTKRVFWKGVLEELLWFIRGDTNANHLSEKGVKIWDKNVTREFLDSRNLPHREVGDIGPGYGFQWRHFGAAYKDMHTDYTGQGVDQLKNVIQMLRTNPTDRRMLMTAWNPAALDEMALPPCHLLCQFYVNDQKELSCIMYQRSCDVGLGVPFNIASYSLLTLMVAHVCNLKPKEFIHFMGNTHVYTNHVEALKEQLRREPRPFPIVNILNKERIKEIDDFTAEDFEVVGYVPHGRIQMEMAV

The target of assay [3] is T3, Dihydrofolate reductase (Rattus norvegicus, UniProt Q920D2).
T3 sequence (Q920D2 whole entry): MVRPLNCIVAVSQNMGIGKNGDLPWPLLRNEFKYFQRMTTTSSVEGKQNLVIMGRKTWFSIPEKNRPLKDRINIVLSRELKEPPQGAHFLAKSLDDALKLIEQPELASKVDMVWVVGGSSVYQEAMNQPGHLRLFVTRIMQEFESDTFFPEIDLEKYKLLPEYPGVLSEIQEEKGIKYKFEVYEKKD

The source of these data is ChEMBL document CHEMBL1159120, “2,4-Diamino-5-methyl-6-substituted arylthio-furo[2,3-d]pyrimidines as novel classical and nonclassical antifolates as potential dual thymidylate synthase and dihydrofolate reductase inhibitors” (Bioorg Med Chem, 2010).

A word on the IC50: it is the midpoint of a concentration-inhibition curve.

Each structure is given as a SMILES string.

`Cc1c(Sc2c(Cl)cccc2Cl)oc2nc(N)nc(N)c12`: the IC50 at Dihydrofolate reductase [1] amounted to 56.2 µM; in assay [2], 25.5 µM. Take `COc1ccc(Sc2oc3nc(N)nc(N)c3c2C)cc1`: inhibition in assay [2] was half-maximal at 69.4 µM (IC50).

In assay [2], `COc1ccc(Sc2oc3nc(N)nc(N)c3c2C)cc1OC` registered an IC50 of 51.7 µM. With `Cc1c(Sc2c(F)c(F)c(C(F)(F)F)c(F)c2F)oc2nc(N)nc(N)c12`, the IC50 in assay [2] is 81.8 µM. In the case of `Cc1cccc(C(C)C)c1Sc1oc2nc(N)nc(N)c2c1C`, the half-maximal inhibitory concentration (IC50) came to 23.4 µM against Dihydrofolate reductase [1], 24.3 µM on Dihydrofolate reductase [3] and 16.2 µM in assay [2].
